Positions count from the first letter of the chain named. pIC50: −log10 of the molar value. “Also recorded” adds a separate entry of the source.

One assay concerns the target T1, rat ASIC1a (rASIC1a) (Rattus norvegicus, UniProt P55926).
T1 sequence (P55926 1-526): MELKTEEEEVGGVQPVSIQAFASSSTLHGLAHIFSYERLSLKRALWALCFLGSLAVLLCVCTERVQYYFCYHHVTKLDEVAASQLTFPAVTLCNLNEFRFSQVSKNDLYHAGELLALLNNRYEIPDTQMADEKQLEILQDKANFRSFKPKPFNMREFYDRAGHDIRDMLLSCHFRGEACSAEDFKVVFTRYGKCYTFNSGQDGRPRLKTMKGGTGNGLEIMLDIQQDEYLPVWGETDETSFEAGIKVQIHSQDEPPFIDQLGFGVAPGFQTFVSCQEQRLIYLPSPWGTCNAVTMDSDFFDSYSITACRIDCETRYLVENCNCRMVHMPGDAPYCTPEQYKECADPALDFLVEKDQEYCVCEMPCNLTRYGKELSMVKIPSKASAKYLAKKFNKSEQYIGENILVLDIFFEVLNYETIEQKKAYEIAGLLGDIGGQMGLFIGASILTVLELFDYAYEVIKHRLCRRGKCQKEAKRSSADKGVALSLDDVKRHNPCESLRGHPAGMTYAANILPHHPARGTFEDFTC
Particulars: background art; cited from earlier work.

For a further assay, the system named is ASIC1a. Particulars: cited from earlier work.
The next assay has as its target T2, rASIC1a (Rattus norvegicus, UniProt P55926).
T2 construct: expressed in transfected cells; host or cells: Xenopus laevis oocytes injected with cRNA
T2 sequence (P55926 1-526): T1 sequence (P55926 1-526)
Briefly: Two-electrode voltage clamp (TEVC) on Xenopus laevis oocytes expressing homomeric rASIC1a. The format is cell-based. The procedure:
The ability of the peptides of the invention to modulate ASIC currents was assessed using two-electrode voltage clamp (TEVC) electrophysiology experiments performed on Xenopus laevis oocytes expressing homomeric ASIC channels. Xenopus oocytes are widely used as an expression system for functional characterisation of ion channel modulators. TEVC allows measurement of whole-cell ion channel currents while controlling the membrane potential.
Oocytes were harvested from anaesthetised female X. laevis then defolliculated by treatment with collagenase (Sigma, type I). Oocytes were injected with in vitro transcribed ASIC cRNA (capped RNA). Oocytes were kept at 17-18° C. in ND96 solution containing 96 mM NaCl, 2 mM KCl, 1.8 mM CaCl2, 2 mM MgCl2, 5 mM HEPES, 5 mM pyruvic acid, 50 μg/ml gentamicin (pH 7.4), and fetal horse serum (2.5%), and experiments were performed at room temperature (21-22° C.) 1-3 days after cRNA injection. Oocytes were clamped at −60 mV (Warner OC-725C oocyte clamp; Warner Instruments, CT, USA) using two standard glass microelectrodes of 0.5-2 MΩ resistance when filled with 3 M KCl. Data acquisition and analysis were performed using pCLAMP software, Version 10 (Axon Instruments, CA, USA). Currents were elicited by a drop in pH from 7.45 to 6.0 using a microperfusion system to allow rapid solution exchange. All experiments were performed using ND96 solution spiked with 0.1% BSA in order to minimise adsorption of peptides to plastic tubing.
For orientation: Two-electrode voltage clamp is typically applied to oocytes expressing channels or transporters.

In assay [1] the test system is other ASIC homomers or heteromers. Particulars: background art; cited from earlier work.
For assay [2], the system named is spontaneously hypertensive rats (SHR). The assay can be described thus: Focal reperfusion (endothelin-1) stroke model in conscious SHR, i.c.v. administration. The format is in vivo, rat. Particulars: single i.c.v. dose two hours after stroke; Hi1a 2 ng/kg, PcTx1 and mutant 1 ng/kg; 72 h post-stroke. The method, then: The neuroprotective efficacy of Hi1a was assessed in a rat model of focal cerebral ischemia. In vivo experiments were conducted using a focal reperfusion model of stroke in conscious spontaneously hypertensive rats (SHR) as previously reported (McCarthy et al., Neuropharmacology 99, 650-657, 2015). Two 23-gauge stainless steel guide cannulae were stereotaxically implanted into anaesthetised animals (ketamine 75 mg/kg; xylazine 10 mg/kg; intraperitoneal) 5 days prior to stroke induction. The first cannula was implanted 3 mm dorsal to the right middle cerebral artery for stroke induction. The second cannula was implanted into the left lateral ventricle for drug administration.
After 5 days recovery, stroke was induced in conscious rats by inserting a 30-gauge injector protruding 3 mm below the previously implanted cannula. […] Only animals that achieved a level 4 stroke were included in the study. Typical behaviours associated with a level 4 stroke include continuous ipsilateral circling, clenching, dragging, failure to extend the left contralateral forelimb, chewing, jaw flexing, and shuffling with forepaws.
Compared to models of middle cerebral artery occlusion (MCAO) achieved by surgical exposure of the artery, this model has the advantage of minimal surgical intervention in the brain, and the stroke is induced in the absence of anaesthetics, which can confound the results of drug studies (Callaway et al., 1999; Sharkey et al., 1993). Stroke-induced motor deficit was assessed by counting the number of foot faults made while rats traversed a gradually narrowing ledged beam (McCarthy et al., Stroke 40, 1482-1489, 2009). Animals were trained to traverse the beam on two consecutive days prior to pre-stroke assessment. For the neurological score, postural abnormalities were assessed by elevating the rat by the tail above a flat surface and grading the severity of thorax twisting and the angle of forelimb extension. Both indicators of neurological health are scored between 0 and 3, with a score of 0 corresponding to no twisting of the thorax or complete forelimb extension towards the flat surface. A score of 3 corresponds to severe thorax twisting and a failure to extend the forelimb. The score for thorax twisting and forelimb extension are summed to give a total possible score of 6, which represents severe neurological deficit. Both behavioural tests were performed prior to stroke, and at 24 and 72 h after stroke.
At 72 h post-stroke, rats were re-anaesthetised (ketamine 75 mg/kg; xylazine 10 mg/kg; intraperitoneal) and transcardially perfused with physiologically buffered saline. Brains were removed, snap frozen and sectioned (16 μm) at eight pre-determined forebrain levels (−3.20 mm to 6.8 mm) relative to bregma. Sections were imaged, and infarct volumes were measured using the ballistic light method and corrected for edema (McCarthy et al., Stroke 40, 1482-1489, 2009).
The doses of Hi1a and PcTx1 were chosen to give approximately equivalent molar concentrations as Hi1a is twice the molecular mass of PcTx1. Drugs were dissolved in saline and infused in a volume of 3 μl over 3 min. At 3 days after stroke, the brains were perfused, removed, then snap frozen and sectioned to determine the infarct size.
In a separate series of experiments, Hi1a (2 ng/kg) was administered i.c.v. to SHR at 2, 4 or 8 hours after stroke induction. Motor-coordination (ledged beam test) and stroke-related postural abnormalities (neurological test) were evaluated at days 1 and 3 post-stroke. At 3 days after stroke, the brains were perfused, removed, then snap frozen and sectioned to determine the infarct size.

The target in the next assay is T3, F350A mutant rASIC1a (Rattus norvegicus, UniProt P55926, F350A).
T3 construct: expressed in transfected cells; host or cells: Xenopus oocytes
T3 sequence (P55926 1-526 F350A): T1 sequence (P55926 1-526) with F350A
Particulars: Sherwood et al., 2009; cited from earlier work.

Regarding `CC[C@H](C)[C@@H]1NC(=O)[C@@H](NC(=O)[C@H](CC(=O)O)NC(=O)[C@@H](N)CCC(=O)O)CSSC[C@@H]2NC(=O)[C@@H]3CSSC[C@@H](C(=O)N[C@H](C(=O)N4CCC[C@H]4C(=O)N[C@@H](CCCCN)C(=O)N[C@H](C(=O)N4CCC[C@H]4C(=O)N[C@@H](CCCCN)C(=O)N[C@H](C(=O)O)[C@@H](C)O)[C@@H](C)O)C(C)C)NC(=O)[C@H](C(C)C)NC(=O)[C@H](CCC(=O)O)NC(=O)[C@H](Cc4ccccc4)NC(=O)[C@H](CO)NC(=O)[C@H](CCCNC(=N)N)NC(=O)[C@H](CCCNC(=N)N)NC(=O)[C@H](CCCNC(=N)N)NC(=O)[C@H](CCCCN)NC(=O)[C@H](Cc4c[nH]c5ccccc45)NC(=O)[C@H](CSSC[C@H](NC(=O)CNC(=O)[C@H](CCCCN)NC(=O)[C@H](Cc4c[nH]c5ccccc45)NC(=O)[C@H](CCCCN)NC(=O)[C@@H]4CCCN4C1=O)C(=O)N[C@@H](C(C)C)C(=O)N[C@@H](CC(N)=O)C(=O)N[C@@H](CCCNC(=N)N)C(=O)N[C@@H](Cc1c[nH]cn1)C(=O)NCC(=O)N[C@@H](CC(=O)O)C(=O)N3)NC(=O)[C@H](CCC(=O)O)NC(=O)[C@H](CC(C)C)NC(=O)CNC(=O)[C@H](CCC(=O)O)NC2=O` [PcTx1, reference compound], the negative-log IC50 (pIC50) at rat ASIC1a (rASIC1a) is around 9.00. Moreover, the “Effect on activation curve” value with ASIC1a (applied at pH 7.9, Chen et al., 2005) is reported as “shifts the activation curve for ASIC1a to more alkaline values”. In addition, the “Effect on steady-state desensitisation (SSD) curve” value in the assay with ASIC1a (physiological pH of 7.4) is recorded as “parallel shift in the steady-state desensitisation (SSD) curve to more alkaline values”. The “Time to full reversal of inhibition upon washout” value at rASIC1a (10 nM peptide) is at most 15 min. For the same compound, the “Extent of inhibition of ASIC1a currents (full or incomplete)” value at rASIC1a (at saturating concentrations) was “full inhibition”. Moreover, the “Reversibility of inhibition (in words)” value at rASIC1a (upon washout) was “rapidly reversible; also recorded: rapid, fully reversible inhibition”. For the same compound, in assay [1], the “Inhibition of other ASIC homomers or heteromers” value was “does not inhibit”. Besides, the “Infarct size in cortical (penumbral) and striatal (core) regions” value in assay [2] is “significant reduction in infarct volume; also recorded: reduced infarct size”. Besides, on F350A mutant rASIC1a, the “Effect of F350A mutation on inhibition of ASIC1a” value is on record as “abolishes the ability”.

The pIC50 is −log10 of the IC50, conventionally taken in molar units.

The values above are taken from patent US10881712B2, “Neuroprotective agents derived from spider venom peptides” (THE UNIVERSITY OF QUEENSLAND, priority 2015, dated 2021).
